Data from US20230357152A1 (priority 2020, published 2023).

What was measured:
[1] = tested on: Phakopsora pachyrhizi (strain with F129L substitution in mitochondrial cytochrome b protein); assay: Protective control of soybean rust on soybeans, inoculation 6 days after spraying (PHAKPA P6), greenhouse; type: in vivo; settings: inoculation 6 days after treatment
[2] = tested on: Phakopsora pachyrhizi (strain with F129L substitution in mitochondrial cytochrome b protein); assay: Protective control of soybean rust on soybeans, inoculation 2 days after spraying (PHAKPA P2), greenhouse; type: in vivo; settings: inoculation 2 days after treatment
[3] = 4 ppm spray, soybean, % diseased leaf area
[4] = 16 ppm spray, soybean, % diseased leaf area
[5] = comparative trial (Table C1), 4 ppm
[6] = comparative trial (Table C1), 16 ppm

SMILES	PHAKPA (F129L) Disease level (%) P6 at 4 ppm [1, 3] [%]	PHAKPA (F129L) Disease level (%) P6 at 16 ppm [1, 4] [%]	PHAKPA (F129L) Disease level (%) P2 at 4 ppm [2, 3] [%]	PHAKPA (F129L) Disease level (%) P2 at 16 ppm [2, 4] [%]	PHAKPA (F129L) Disease level (%) P6 at 4 ppm [1, 5] [%]	PHAKPA (F129L) Disease level (%) P6 at 16 ppm [1, 6] [%]	PHAKPA (F129L) Disease level (%) P2 at 4 ppm [2, 5] [%]	PHAKPA (F129L) Disease level (%) P2 at 16 ppm [2, 6] [%]
CO/N=C(/C(=O)OC)c1cccc(C)c1CO/N=C(\C)c1nccc2ccccc12 [Example 44]	83	63	100	87				
CNC(=O)/C(=N/OC)c1cccc(C)c1CO/N=C(\C)c1cc(C)ccn1 [Example 26]	90	73	63	11				
CO/N=C(/C(=O)OC)c1ccccc1CO/N=C(\C)c1cccc(C(F)(F)F)c1 [Trifloxystrobin, trifloxy-strobin, reference compound]					100	53	97	37
CO/N=C(/C(=O)OC)c1cccc(C)c1CO/N=C(\C)c1ccc(Cl)nn1 [Example 91]	53	90	98	88				
CNC(=O)/C(=N/OC)c1cccc(C)c1CO/N=C(\C)c1cc(OC)ccn1 [Example 56]	57	1	22	6				
CO/N=C(/C(=O)OC)c1cccc(C)c1CO/N=C(\C)c1cccc(C(F)(F)F)n1 [Example 1]	70	73	80	57				
CO/N=C(/C(=O)OC)c1cccc(C)c1CO/N=C(\C)c1ncsc1C(F)(F)F [Example 40]	83	25	100	18				
CNC(=O)/C(=N/OC)c1cccc(C)c1CO/N=C(\C)c1cnc(C)c(F)c1 [Example 101]	97	77	67	32				
CNC(=O)/C(=N/OC)c1cccc(C)c1CO/N=C(\C)c1cncc(/C(C)=N/OC)n1 [Example 83]	93	47	97	90				
CO/N=C(/C(=O)OC)c1cccc(C)c1CO/N=C(\C)c1cnc(C)c(F)c1 [Example 100]		73	97	90				
CNC(=O)/C(=N/OC)c1cccc(C)c1CO/N=C(\C)c1cc(-c2ccc(Cl)cc2)sn1 [Example 8]	53	40	73	27				
CO/N=C(/C(=O)OC)c1cccc(C)c1CO/N=C(\C)c1cn(C)nc1C(F)(F)F [Example 51]	97	60	100	87				
CO/N=C(/C(=O)OC)c1cccc(C)c1CO/N=C(\C)c1cncn1C [Example 102]	100	100	100	100				
CO/N=C(/C(=O)OC)c1cccc(C)c1CO/N=C(\C)c1cc(-c2cccc(C(F)(F)F)c2)on1 [Example 19]	97	88	100	94				
CO/N=C(/C(=O)OC)c1cccc(C)c1CO/N=C(\C)c1ccc(C#CC2CC2)nc1 [Example 68]	87	87	90	80				
CNC(=O)/C(=N/OC)c1cccc(C)c1CO/N=C(\C)c1cc(-c2ccccc2)sn1 [Example 38]	13	5	20	12				
CNC(=O)/C(=N/OC)c1cccc(C)c1CO/N=C(\C)c1cc(-c2ccc(Cl)cc2)on1 [Example 20]	60	40	63	40				
CNC(=O)/C(=N/OC)c1cccc(C)c1CO/N=C(\C)c1cccc(OC)n1 [Example 3]	60	28	50	8				
CNC(=O)/C(=N/OC)c1cccc(C)c1CO/N=C(\C)c1nccc(C(F)(F)F)n1 [Example 73]	47	15	53	4				
CO/N=C(/C(=O)OC)c1cccc(C)c1CO/N=C(\C)c1cc(-c2cccc(C(F)(F)F)c2)sn1 [Example 35]	50	25	37	40				
CO/N=C(/C(=O)OC)c1cccc(C)c1CO/N=C(\C)c1cc(-c2ccc(Cl)cc2)sn1 [Example 7]	42	26	31	22				
CNC(=O)/C(=N/OC)c1cccc(C(F)(F)F)c1CO/N=C(\C)c1cc(-c2ccc(Cl)cc2)on1 [Example 17]	90	93	100	100				
CO/N=C(/C(=O)OC)c1cccc(C)c1CO/N=C(\C)c1cc(C(F)(F)F)ccn1 [Example 4, Methyl (2E)-2-methoxyimino-2-[3-methyl-2-[[(E)-1-[4-(trifluoromethyl)-2-pyridyl]ethylideneamino]oxymethyl]phenyl]acetate]					12		9	
CNC(=O)/C(=N/OC)c1cccc(C)c1CO/N=C(\C)c1cc(C(F)(F)F)nc(C)n1 [Example 58]	57	1	22	6				
CNC(=O)/C(=N/OC)c1cccc(C)c1CO/N=C(\C)c1nccc2ccccc12 [Example 45]	87	63	83	25				
CNC(=O)/C(=N/OC)c1cccc(C)c1CO/N=C(\C)c1cc2ccccc2cn1 [Example 67]	97	50	80	22				
CO/N=C(/C(=O)OC)c1cccc(C)c1CO/N=C(\C)c1nccc(C(F)(F)F)n1 [Example 71]	54	9	56	5				
